# Test results published in patent US20170267560A1, “TABLETS FOR TREATING AND DISINFECTING WATER” (ERCROS, S.A., priority 2014, published 2017).
# Tests used:
# [1] = Thermogravimetric analysis of the quantity of additive encapsulated in microporous or mesoporous material
# [2] = Chemical compatibility with TCCA: chlorine gas released after 15 hours at 60±2° C., iodometric titration; details: TCCA mixtures + encapsulated additives (100 g of TCCA + 0.1% additive), TCCA alone (100 g) as reference standard
Molecule,"% Encapsulated (g additive/g dry solid) × 100 ([1]; MIL-53 MOF, two steps, 60° C., encapsulation time 1 day) [%]","% Encapsulated (g additive/g dry solid) × 100 ([1]; MIL-53 MOF, two steps, 60° C., encapsulation time 2 days) [%]","% Encapsulated (g additive/g dry solid) × 100 ([1]; MIL-53 MOF, two steps, 60° C., encapsulation time 4 days) [%]","% Encapsulated (g additive/g dry solid) × 100 ([1]; MIL-53 MOF, two steps, 60° C., encapsulation time 7 days) [%]","% Encapsulated (g additive/g dry solid) × 100 ([1]; MIL-88 A (Al) MOF, in-situ encapsulation in one single step (Example 4)) [%]","% Encapsulated (g additive/g dry solid) × 100 ([1]; MIL-88 A (Al) MOF, two steps, encapsulation time 3 days) [%]",% Encapsulated (g additive/g solid total) × 100 ([1]; encapsulated in silica by impregnation (Example 1)) [%],mg Cl2 released [2] [mg mg Cl2]
icaridin,27.0,20.5,24.9,24.9,16.6,16.0,53.5,–
O=c1n(Cl)c(=O)n(Cl)c(=O)n1Cl,–,–,–,–,–,–,–,1.4
